Experiment [1] addresses T1, BIR3 domain of human XIAP (residues 252-350) (Homo sapiens, UniProt P98170).
T1 construct: BIR3 domain of human XIAP (residues 252-350); His-tag (cleaved yes); made in house; host or cells: Escherichia coli
Description: XIAP in vitro competitive displacement binding assay (fluorescence polarization). The conditions noted are these: 1 h; percent inhibition (PI) at 0.04 μM; read-out: Xiap IC50 or PI μM.

Amino acid sequences for entries named in this document (tags omitted). Residues count along the entry.
UniProt P98170, 252-350: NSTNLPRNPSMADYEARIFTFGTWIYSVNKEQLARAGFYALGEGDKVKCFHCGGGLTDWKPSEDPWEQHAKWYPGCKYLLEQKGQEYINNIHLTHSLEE
UniProt Q13490, 267-363: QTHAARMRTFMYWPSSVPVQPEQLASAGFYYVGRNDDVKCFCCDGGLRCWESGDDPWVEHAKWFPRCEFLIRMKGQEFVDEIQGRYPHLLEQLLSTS

The target of experiment [2] is T2, BIR3 domain of human cIAP-1 (residues 267-363) (Homo sapiens, UniProt Q13490).
T2 construct: human cIAP-1 (residues 267-363) fused to a GST-tag; GST-tag (cleaved yes); made in house; host or cells: Escherichia coli
Nature of the experiment: cIAP-1 in vitro competitive displacement binding assay (fluorescence polarization). The conditions noted are these: percent inhibition (PI) at 0.012 μM; for inhibition at 0.012 µM: 3 h, read-out: cIAP1 IC50 or PI μM. For orientation: Fluorescence polarisation rises when a labelled molecule tumbles more slowly, as on binding a larger partner.

The source of these data is patent US9617283B2, “Bicyclic heterocycle compounds and their uses in therapy” (ASTEX THERAPEUTICS LIMITED, priority 2012, dated 2017).

Structures can show the parent of a compound that is named as a salt.

Turning to `C[C@@H]1CN(CC(=O)N2CC(C)(C)c3ncc(Cc4ccc(F)cc4)cc32)[C@@H](CN2CC(=O)NCC2=O)CN1` [Example 22, 1-{[(2R,5R)-1-(2-{6-[(4-Fluorophenyl)methyl]-3,3-dimethyl-1H,2H,3H-pyrrolo[3,2-b]pyridin-1-yl}-2-oxoethyl)-5-methylpiperazin-2-yl]methyl}piperazine-2,5-dione], the inhibition at 0.04 µM in experiment [1] turned out to be 38%. Take `C[C@@H]1CN(CC(=O)N2CC(C)(C)c3ncc(Cc4ccc(F)cc4)cc32)[C@@H](CN2CC(C)(C)CC2=O)CN1` [Example 1, 1-{[(2R,5R)-1-(2-{6-[(4-Fluorophenyl)methyl]-3,3-dimethyl-1H,2H,3H-pyrrolo[3,2-b]pyridin-1-yl}-2-oxoethyl)-5-methylpiperazin-2-yl]methyl}-4,4-dimethylpyrrolidin-2-one dihydrochloride]: the inhibition at 0.012 µM in experiment [2] was 98%. Regarding `C[C@@H]1CN(CC(=O)N2CC(C)(C)c3ncc(Cc4ccc(F)cc4)cc32)[C@@H](CN2CCC(F)(F)C2=O)CN1` [Example 11, 3,3-Difluoro-1-{[(2R,5R)-1-(2-{6-[(4-fluorophenyl)methyl]-3,3-dimethyl-1H,2H,3H-pyrrolo[3,2-b]pyridin-1-yl}-2-oxoethyl)-5-methylpiperazin-2-yl]methyl}pyrrolidin-2-one dihydrochloride], in experiment [2], the inhibition at 0.012 µM turned out to be 89%. Also, the inhibition at 0.04 µM in experiment [1] stood at 45%. For the compound `C[C@@H]1CN(CC(=O)N2CC(C)(C)c3ncc(Cc4ccc(F)cc4F)cc32)[C@@H](CN2Cc3ccccc3C2=O)CN1` [Example 76, 2-{[(2R,5R)-1-(2-{6-[(2,4-Difluorophenyl)methyl]-3,3-dimethyl-1H,2H,3H-pyrrolo[3,2-b]pyridin-1-yl}-2-oxoethyl)-5-methylpiperazin-2-yl]methyl}-2,3-dihydro-1H-isoindol-1-one dihydrochloride], in experiment [2], the inhibition at 0.012 µM is 100%. Also, the inhibition at 0.04 µM in experiment [1] came to 84%. For `C[C@@H]1CN(CC(=O)N2CC(C)(C)c3ncc(Cc4ccc(F)cc4)cc32)[C@@H](CN2Cc3cccnc3C2=O)CN1` [Example 95, 6-{[(2R,5R)-1-(2-{6-[(4-Fluorophenyl)methyl]-3,3-dimethyl-1H,2H,3H-pyrrolo[3,2-b]pyridin-1-yl}-2-oxoethyl)-5-methylpiperazin-2-yl]methyl}-5H,6H,7H-pyrrolo[3,4-b]pyridin-7-one dihydrochloride] the same measures were 98% and 72%.

`COc1ccc2c(c1)CN(C[C@H]1CN[C@H](C)CN1CC(=O)N1CC(C)(C)c3ncc(Cc4ccc(F)cc4)cc31)C2=O` [Example 94, 2-{[(2R,5R)-1-(2-{6-[(4-Fluorophenyl)methyl]-3,3-dimethyl-1H,2H,3H-pyrrolo[3,2-b]pyridin-1-yl}-2-oxoethyl)-5-methylpiperazin-2-yl]methyl}-5-methoxy-2,3-dihydro-1H-isoindol-1-one dihydrochloride]: the “cIAP1 IC50 or PI μM” value in experiment [2] (180 min) stood at 96%@0.012. For the same compound, in experiment [1], the inhibition at 0.04 µM is 83%. Regarding `C[C@@H]1CN(CC(=O)N2CC(C)(C)c3ncc(Cc4ccc(F)cc4)cc32)[C@@H](CN2C[C@@H](C)OC2=O)CN1` [Example 9, (5R)-3-{[(2R,5R)-1-(2-{6-[(4-Fluorophenyl)methyl]-3,3-dimethyl-1H,2H,3H-pyrrolo[3,2-b]pyridin-1-yl}-2-oxoethyl)-5-methylpiperazin-2-yl]methyl}-5-methyl-1,3-oxazolidin-2-one], in experiment [1], the inhibition at 0.04 µM amounted to 52%. Regarding `C[C@@H]1CN(CC(=O)N2CC(C)(C)c3ncc(Cc4ccc(F)cc4)cc32)[C@@H](CN2Cc3ncccc3C2=O)CN1` [Example 15, 6-{[(2R,5R)-1-(2-{6-[(4-Fluorophenyl)methyl]-3,3-dimethyl-1H,2H,3H-pyrrolo[3,2-b]pyridin-1-yl}-2-oxoethyl)-5-methylpiperazin-2-yl]methyl}-5H,6H,7H-pyrrolo[3,4-b]pyridin-5-onne dihydrochloride], in experiment [2], the inhibition at 0.012 µM was determined as 100%. The inhibition at 0.04 µM in experiment [1] stood at 74%.
